Among the data in ChEMBL document CHEMBL1125047, “Novel glutamic acid derived cholecystokinin receptor ligands” (J Med Chem, 1990) are IC50 values, retold here.

Chains of the proteins cited; added tags and fusions are not shown.
UniProt P30551, whole entry: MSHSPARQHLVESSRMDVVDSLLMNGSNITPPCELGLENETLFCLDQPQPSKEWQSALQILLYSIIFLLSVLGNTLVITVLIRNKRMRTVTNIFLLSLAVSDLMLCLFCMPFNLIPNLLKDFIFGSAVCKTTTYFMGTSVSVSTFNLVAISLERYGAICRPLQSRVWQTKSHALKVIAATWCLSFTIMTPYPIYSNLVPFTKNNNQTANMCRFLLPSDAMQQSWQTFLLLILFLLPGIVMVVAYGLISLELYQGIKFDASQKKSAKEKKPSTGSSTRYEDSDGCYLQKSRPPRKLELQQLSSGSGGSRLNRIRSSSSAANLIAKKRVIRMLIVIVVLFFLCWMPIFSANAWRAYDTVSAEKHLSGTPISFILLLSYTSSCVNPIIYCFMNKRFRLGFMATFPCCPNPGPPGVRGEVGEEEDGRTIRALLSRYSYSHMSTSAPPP

Each structure is given as a SMILES string.

As usually defined, the IC50 is the point on the concentration scale where inhibition reaches its midpoint. High values mean lower potency, low ones higher potency.

This test deals with Cholecystokinin receptor type A (Rattus norvegicus, UniProt P30551). As to the kind of experiment: Inhibition of binding of [125I]- CCK-33 to rat pancreas.
For `CCCCCN(CCCCC)C(=O)C(CCC(=O)O)NC(=O)Nc1ccc(Cl)cc1` (stereo unspecified), the IC50 amounted to 140 nM. `CCCN(CCC)C(=O)[C@H](CCC(=O)O)NC(=O)c1cc2ccccc2[nH]1` displayed an IC50 of 1100 nM. The same measure for `CCCN(CCC)C(=O)C(CCC(=O)OCc1ccccc1)NC(=O)c1cc2ccccc2[nH]1` (single isomer, unassigned): 810 nM. The same measure for `CCCN(CCC)C(=O)C(CCC(=O)O)NC(=O)c1cc2ccccc2[nH]1` (single isomer, unassigned): 3700 nM; for `O=C(CCC(NC(=O)c1cc2ccccc2[nH]1)C(=O)N(C1CCCCC1)C1CCCCC1)OCc1ccccc1` (single isomer, unassigned): 200 nM.

`CCCCCN(CCCCC)C(=O)C(CCC(=O)O)NC(=O)c1cc2ccccc2[nH]1` (single isomer, unassigned): the IC50 turned out to be 7.6 nM.
